The values that follow are results of earlier work, collected in US20260201061A1, “COMBINATION FOR TREATMENT AND PREVENTION OF CANCER” (Hummingbird Bioscience Pte. Ltd., priority 2022, published 2026).

The subject of this data set is LIM1215 cells. The conditions noted are these: cells express normal levels of EGFR.

“cetuximab: anti-EGFR antibody formed by the polypeptides of SEQ ID NO:99 and SEQ ID NO:100”: the “sensitivity of LIM1215 cells” value was “sensitive to cetuximab”.
